Assay results as given in patent US10098880B2 (CELLWORKS GROUP INC., priority 2014, dated 2018).

Legend:
[1] = system: U87 cell line (PTEN and CDKN2A mutated); test: In-vitro relative growth assay (CellTiter 96 Aqueous One), U87 cell line; format: cell-based, human; settings: FIG. 4A: Nelfinavir 5 μM, Metformin 0.5 mM, Rosuvastatin 12.5 μM, individually or combined, about 71 hours
Method: [table] U251 cell line is procured from Sigma-Aldrich (Catalog number: 09063001). The U87 human cell line is procured from ATCC (American Type Culture Collection, Manassas, Va., ATCC® HTB-14TM). LN229 cell line is procured from ATCC (American Type Culture Collection, Manassas, Va., […]). […] DMSO, Digitoxin and drugs (Nelfinavir, Metformin and Rosuvastatin individually and in combination) are serial diluted in an assay media. 100 μl/well of the diluted sample is added to assay plate containing resuspended cells. […] The assay plate is incubated for about 71 hours followed by addition of about 20 μl of Promega Substrate CellTiter 96 Aqueous One Solution Reagent to each well. It is incubated at 37° C. The absorbance of the sample is read at about 490 nm.

[2] = in vivo; cited from earlier work

In the case of `[H]/N=C(/N=C(N)N)N(C)C` [Metformin, 1-carbamimidamido-N,N-dimethyl-methanimidamide], the “reduction in relative growth” value [1] is listed as “do not show much efficacy” and the Metabolism [2] is listed as “not metabolized”.
